Experiments:
Fibroblast = test: Multiplex assay against human fibroblast; format: toxicity, cell-based; conditions: 10 µM, compound concentration 10 uM
HEK-293T = test: Multiplex assay against HEK293T; format: toxicity, cell-based; conditions: human, 12 h, 1 µM, compound concentration 1 uM

## CNC[C@H](O)c1ccc(O)c(O)c1 [EPINEPHRINE]
Fibroblast; 0 h
  Total Cell Count: 165
Fibroblast; 12 h
  Total Cell Count: 179
HEK-293T
  Total Cell Count: 371

— ChEMBL document CHEMBL5724801, “EUbOPEN Chemogenomics Library - Multiplex” (2024)
